{"sequences": {"note": "By UniProt entry, the sequences of proteins in these tests, tags left out. Where a name states a change or a piece, a line headed by the entry shows the natural chain unless it says otherwise.", "UniProt Q8MJ88": "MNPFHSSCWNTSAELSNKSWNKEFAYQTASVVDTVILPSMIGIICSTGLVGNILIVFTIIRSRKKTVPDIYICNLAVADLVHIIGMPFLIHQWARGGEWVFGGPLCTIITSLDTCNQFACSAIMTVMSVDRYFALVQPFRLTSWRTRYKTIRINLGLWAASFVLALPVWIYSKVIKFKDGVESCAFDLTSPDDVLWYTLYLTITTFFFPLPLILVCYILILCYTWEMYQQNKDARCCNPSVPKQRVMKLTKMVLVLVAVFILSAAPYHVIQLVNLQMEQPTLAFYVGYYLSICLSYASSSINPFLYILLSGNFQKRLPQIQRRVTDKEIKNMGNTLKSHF", "UniProt Q969V1": "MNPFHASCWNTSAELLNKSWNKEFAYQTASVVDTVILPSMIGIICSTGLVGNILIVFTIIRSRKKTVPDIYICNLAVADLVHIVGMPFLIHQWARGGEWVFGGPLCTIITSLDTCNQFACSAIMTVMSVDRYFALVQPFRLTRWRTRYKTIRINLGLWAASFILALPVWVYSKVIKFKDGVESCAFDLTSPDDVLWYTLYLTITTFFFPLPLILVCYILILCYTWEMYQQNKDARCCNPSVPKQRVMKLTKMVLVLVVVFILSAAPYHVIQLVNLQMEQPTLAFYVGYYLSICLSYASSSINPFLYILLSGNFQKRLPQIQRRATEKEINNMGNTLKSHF"}, "source": "patent US7208282B2", "about": "“Rhesus monkey, dog and ferret melanin-concentrating hormone type 2 receptor” (priority 2001, dated 2007)", "key": {"rhesus MCH-2R [1]": {"molecular_target": "T1, rhesus MCH-2R (Macaca mulatta, UniProt Q8MJ88)", "T1 construct": "expressed in transfected cells; host or cells: HEK293T", "test": "intracellular calcium (fura-2) in HEK293T cells transiently expressing rhesus MCH-2R", "assay_type": "cell-based, rhesus monkey", "details": "read-out: EC50, increase in intracellular calcium levels", "source_text": "The entire coding sequence of rhesus MCH-2R was cloned into BamHI-NotI site of pEF1/V5-His C plasmid vector (Invitrogen). The resultant construct was transfected into HEK293T cells using LipofectAmine PLUS (Life Technologies, Rockville, Md.) according to the manufacture's instructions. Human embryonic kidney cells constitutively expressing SV40 large T antigen (HEK-293T) were maintained in Dulbecco's modified Eagle medium (Life Technologies) supplemented with 10% fetal bovine serum, 100 units/ml penicillin-G and 100 μg/ml streptomycin at 37° C. with 5% CO2 in a humidified atmosphere.\nThe intracellular calcium ion concentration ([Ca^2+]i) was measured fluorometrically using a Ca^2+-sensitive fluorescent dye, fura-2. […] Two point five microliters of dimethyl sulfoxide (DMSO) solution of MCH (Peptide Institute, Osaka, Japan) or [Phe^13, Tyr^19]-MCH (Bachem, Bubendorf, Switzerland) was added into the cell suspension, and fluorescent intensity at an emission wavelength of 500 nm and excitation wavelengths of 340 and 380 nm was monitored with a CAF-110 intracellular ion analyzer (JASCO, Tokyo, Japan). Data were analyzed using the software GraphPad Prism Version 3.0 (GraphPad Software, Inc., San Diego, Calif., USA)."}, "rhesus MCH-2R [2]": {"molecular_target": "T1, rhesus MCH-2R", "test": "inhibition of [125I]-[Phe13, Tyr19]-MCH binding to rhesus MCH-2R on HEK293T cells (filtration)", "design": "species or system rhesus monkey", "details": "read-out: IC50, inhibition of [125I]-[Phe13, Tyr19]-MCH binding, 100 pM [125I]-[Phe13, Tyr19]-MCH, 30 minutes at 37° C.", "protocol": "HEK293T cells transfected with pEF1/V5-HisC/MCH-2R plasmid were harvested by phosphate-buffered saline containing 2 mM EDTA 48 hours after transfection, and washed once with the assay buffer (Hanks' balanced salt solution containing 20 mM HEPES, 0.2% BSA and 100 μg/ml bacitracin, pH 7.4). The cells (4×10^5 cells/tube) were then incubated in 250 μl/tube of the same buffer with 100 pM [^125I]-[Phe^13, Tyr^19]-MCH for 30 minutes at 37° C. After the incubation, bound and free [^125I]-[Phe^13, Tyr^19]-MCH were separated by filtration using a Unifilter GF/B glass filter (Packard Instrument) presoaked with 0.3% polyethylenimine. The remaining radio activity on the filter was quantitated using a TopCount HTS (Packard instrument) with a Microscint 0 scintillation cocktail (Packard instrument). Specific binding was defined as the difference between total binding and nonspecific binding in the presence of 1 μM cold [Phe^13, Tyr^19]-MCH. Data were analyzed using GraphPad Prism Version 3.0."}, "human MCH-2R [3]": {"molecular_target": "T2, human MCH-2R (Homo sapiens, UniProt Q969V1)", "T2 construct": "expressed in transfected cells; host or cells: COS-7", "test": "membrane radioligand binding assay, transfected COS-7 cells, human MCH-2R", "details": "read-out: Binding (IC50), COS-7 membranes", "protocol": "Membrane binding assays were performed on transiently-transfected COS-7 cells using human or ferret MCH-2R in the plasmid vector pCI-neo (Promega, Madison, Wis.), COS-7 cells were cultured in Dulbecco's modified Eagle medium (Gibco BRL, Rockville, Md.) with 10% heat inactivated fetal calf serum.\nA suspension of 7×10^6 COS-7 cells were transfected with 20 μg of pCI-neo/MCH-2R plasmid by electroporation. (Strader, et al., 1987. Proc. Natl. Acad. Sci. USA 84, 4384–4388). Cells were harvested after 60–72 hours. Membranes were prepared from transient and stable transfectants by hypotonic lysis, frozen in liquid nitrogen, and stored at −80° C. (MacNeil, et al., 1994. Biochem. Biophys. Res. Commun. 198, 328–334.)\nA binding assay was set up in 96 well plates. Total volume per binding assay point was 200 μL. Binding conditions were 50 mM Tris pH 7.4, 10 mM MgCl2, 2 mM EDTA 200 μg/mL bacitracin, 1 μM phosphoramidon, 2.5 to 5 μg protein, with and without 10 μM MCH unlabeled peptide as a competitor. Dose response curves were from 10 μM in 5 fold or 3-fold dilution series for 11 points. The mixture was shaken for 5 minutes on a platform shaker, and incubated at room temperature for 1 hour. Filter plates were presoaked in 1% PEI. […] 30 μL microscintillant was added per well and counted for 1.5–3 minutes in inverted format on Packard TopCount. […]"}, "human MCH-2R [4]": {"molecular_target": "T2, human MCH-2R", "test": "aequorin bioluminescence functional assay, human MCH-2R", "assay_type": "cell-based", "details": "read-out: Function (EC50), aequorin HEK-293 cells", "source_text": "The aequorin bioluminescence assay is a reliable test for identifying G-protein-coupled receptors which couple through the G protein subunit family consisting of Gq and G11 which leads to the activation of phospholipase C, mobilization of intracellular calcium, and activation of protein kinase C. (Ungrin, et al., Anal. Biochem. 1999. 272:34–42.)\nFor expression studies, HEK-293 cells stably expressing the aequorin reporter protein were transiently transfected with MCH-2R human or ferret expression plasmid or stable cell lines were derived (human MCH-2R). The assay was performed using a Luminoscan RT luminometer (Labsystems Inc., Gaithersburg, Md.).\n293AEQ17/Aequorin cells (Button, et al., 1993. Cell Calcium 14, 663–671), were cultured for 72 hours and the apo-aequorin in the cells was charged for 1 hour with coelenterazine (10 μM) under reducing conditions (300 μM reduced glutathione) in ECB buffer (140 mM NaCl, 20 mM KCl, 20 mM HEPES-NaOH, pH 7.4, 5 mM glucose, 1 mM MgCl2, 1 mM CaCl2, 0.1 mg/mL bovine serum albumin). […] 100 μL of cell suspension (corresponding to 5×10^4 cells) was then injected into the test plate containing ligands, and the integrated light emission was recorded over 30 seconds, in 0.5-second units. 20 μL of lysis buffer (0.1% final Triton X-100 concentration) was then injected and the integrated light emission recorded over 10 seconds, in 0.5-second units. […]"}}}
{"substance": "Melanin-concentrating hormone [MCH]", "values": [{"measurement": "EC50", "setting": "rhesus MCH-2R [1]", "value": 24, "unit": "nM"}, {"measurement": "IC50", "setting": "rhesus MCH-2R [2]", "value": 9.9, "unit": "nM"}, {"measurement": "IC50", "setting": "human MCH-2R [3]", "value": 10, "unit": "nM"}, {"measurement": "EC50", "setting": "human MCH-2R [4]", "value": 43, "unit": "nM"}]}
